{"source": "paper PMC5365645", "about": "“Preclinical Pharmacokinetics and Pharmacodynamic Target of SCY-078, a First-in-Class Orally Active Antifungal Glucan Synthesis Inhibitor, in Murine Models of Disseminated Candidiasis” (Antimicrobial Agents and Chemotherapy, 2017)", "system": "C. albicans MY1055", "experiment": "Immediate treatment murine model of disseminated candidiasis", "conditions": "SCY-078 doses of ≥12.5 mg/kg BID oral", "data": [{"compound": "CC(C)[C@@H](C)[C@@]1(C)CC[C@]2(C)[C@H]3CC[C@@H]4[C@@]5(COC[C@@]4(C)[C@@H](OC[C@](C)(N)C(C)(C)C)[C@H](n4ncnc4-c4ccncc4)C5)C3=CC[C@@]2(C)[C@@H]1C(=O)O", "note": "[SCY-078, (1S,4aR,6aS,7R,8R,10aR,10bR,12aR,14R,15R)-15-[[(2R)-2-amino-2,3,3-trimethylbutyl]oxy]-8-[(1R)-1,2-dimethylpropyl]-14-[5-(4-pyridinyl)-1H-1,2,4-triazol-1-yl]-1,6,6a,7,8,9,10,10a,10b,11,12,12a-dodecahydro-1,6a,8,10a-tetramethyl-4H-1,4a-propano-2H-phenanthro[1,2-c]pyran-7-carboxylic acid]", "values": [{"measurement": "Clearance in kidney fungal burden", "value": 100, "unit": "%"}]}]}
